Drawing on ChEMBL document CHEMBL4414601 (J Med Chem, 2019), this text covers selectivity ratio, IC50 and solubility for seven molecules.

Amino acid sequences for entries named in this document (tags omitted). A change or cut given only in a name is not applied to a line headed by its entry.
UniProt Q12809: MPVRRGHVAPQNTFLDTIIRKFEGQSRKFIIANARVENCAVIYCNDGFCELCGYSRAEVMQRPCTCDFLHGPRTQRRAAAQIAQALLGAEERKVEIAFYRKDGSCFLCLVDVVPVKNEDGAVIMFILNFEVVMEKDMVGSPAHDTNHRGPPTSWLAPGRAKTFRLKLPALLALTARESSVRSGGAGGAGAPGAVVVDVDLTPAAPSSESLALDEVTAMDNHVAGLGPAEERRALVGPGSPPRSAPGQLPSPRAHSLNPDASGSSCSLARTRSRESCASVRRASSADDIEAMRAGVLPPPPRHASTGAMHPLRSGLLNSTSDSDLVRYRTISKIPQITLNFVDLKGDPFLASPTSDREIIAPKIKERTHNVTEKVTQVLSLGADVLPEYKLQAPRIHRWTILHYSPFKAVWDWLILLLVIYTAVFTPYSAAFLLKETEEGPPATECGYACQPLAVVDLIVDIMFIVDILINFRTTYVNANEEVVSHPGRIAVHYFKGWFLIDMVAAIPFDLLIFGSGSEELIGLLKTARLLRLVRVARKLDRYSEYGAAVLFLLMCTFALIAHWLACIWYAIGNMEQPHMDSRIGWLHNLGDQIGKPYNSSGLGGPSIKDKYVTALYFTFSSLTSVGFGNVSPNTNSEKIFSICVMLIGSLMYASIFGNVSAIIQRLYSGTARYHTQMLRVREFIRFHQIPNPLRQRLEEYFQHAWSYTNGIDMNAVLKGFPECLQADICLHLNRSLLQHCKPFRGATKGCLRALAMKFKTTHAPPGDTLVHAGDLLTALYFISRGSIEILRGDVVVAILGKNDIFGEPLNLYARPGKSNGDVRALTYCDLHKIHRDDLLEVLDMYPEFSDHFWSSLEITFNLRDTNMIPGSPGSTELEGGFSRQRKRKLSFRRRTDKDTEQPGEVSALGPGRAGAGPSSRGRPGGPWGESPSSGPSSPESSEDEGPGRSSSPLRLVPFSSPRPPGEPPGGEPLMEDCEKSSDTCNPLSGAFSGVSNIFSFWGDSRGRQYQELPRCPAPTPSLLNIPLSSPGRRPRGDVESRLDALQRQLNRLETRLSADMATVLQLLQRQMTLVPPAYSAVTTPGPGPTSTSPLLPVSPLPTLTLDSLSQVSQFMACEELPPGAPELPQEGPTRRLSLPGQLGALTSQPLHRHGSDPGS

Broadly, the IC50 is the midpoint of a concentration-inhibition curve. The low end stands for greater potency in that assay, the high end for weaker potency in that assay. The term solubility denotes the concentration that dissolves in the medium under given conditions. The low end stands for a poorly soluble substance, the high end for a readily soluble substance.

Data set [1] is described as follows: Selectivity ratio of EC50 for cytotoxicity against mouse L929 cells to EC50 for Antiplasmodial activity against Plasmodium falciparum 3D7A erythrocytic stage. Format: toxicity, cell-based. The following applies: read-out: Ratio EC50.
Data set [2] addresses Voltage-gated inwardly rectifying potassium channel KCNH2 (Homo sapiens, UniProt Q12809).
For data set [3] the following is noted: buffer.

Each structure is given as a SMILES string. ≈ marks a conversion by molar mass, not a printed value.

Take `Cc1cc(Nc2nccc(-c3sc(C4CCNCC4)nc3C3CC3)n2)ccn1`: the selectivity ratio in data set [1] is 105. The molecule also showed a half-inhibitory concentration (IC50) in data set [2] of 4.2 µM.

In data set [2], `Fc1ccc(-c2nc(N3CCCC3)sc2-c2ccnc(Nc3ccc(N4CCNCC4)cc3)n2)cc1` came in with an IC50 of 5.6 µM. This lies in the single-digit micromolar range.

Turning to `CN1CCC(C(=O)Nc2nc(-c3ccc(F)cc3)c(-c3ccnc(Nc4ccc(N5CCNCC5)cc4)n3)s2)CC1`, the half-inhibitory concentration (IC50) in data set [2] worked out at 50.1 µM.

`CCCS(=O)(=O)Nc1nc(-c2ccc(F)cc2)c(-c2ccnc(Nc3ccc(N4CCNCC4)cc3)n2)s1`: the solubility in data set [3] is < 1 µM.

In data set [3], `COc1cc(Nc2nccc(-c3sc(C4CCNCC4)nc3-c3ccc(F)cc3)n2)cc(C)n1` returned a solubility of 490 µM (≈ 234 µg/mL).

In turn, `Oc1cc(Nc2nccc(-c3sc(C4CCNCC4)nc3-c3ccc(F)cc3)n2)ccn1` came in with a solubility in data set [3] of 390 µM (≈ 175 µg/mL).

Turning to `Fc1ccc(-c2nc(N3CCOCC3)sc2-c2ccnc(Nc3ccc(N4CCNCC4)cc3)n2)cc1`, the midpoint of inhibition in data set [2], the IC50, lay at 5.4 µM. This counts as single-digit micromolar.
